Assay: Toxicity in erythrocytes (unknown origin) assessed as hemolytic activity
Assay type: cell-based, Erythrocyte
Details: read-out: HD50 (the source's name)
In short: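 Human erythrocytes from heparinised blood, spun 3000 rpm for 10 min after three saline washes, used at 0.4% (v/v) in isotonic saline. Equal volumes incubated with increasing concentrations (0.4 to 4.4 mg/mL for extracts) for 60 min at 37 °C. Cells spun at 3000 rpm for 5 min and supernatant A405 read. Lysis by 1% Triton X-100 served as 100%.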

Compound `CC[C@H](C)[C@H](NC(=O)CN)C(=O)NCC(=O)N[C@@H](C)C(=O)N[C@H](C(=O)N[C@@H](CC(C)C)C(=O)N[C@@H](CCCCN)C(=O)N[C@H](C(=O)N[C@@H](CC(C)C)C(=O)N[C@H](C(=O)N[C@H](C(=O)NCC(=O)N[C@@H](CC(C)C)C(=O)N1CCC[C@H]1C(=O)N[C@@H](C)C(=O)N[C@@H](CC(C)C)C(=O)N[C@H](C(=O)N[C@@H](CO)C(=O)N[C@@H](Cc1c[nH]c2ccccc12)C(=O)N[C@H](C(=O)N[C@@H](CCCCN)C(=O)N[C@@H](CCCNC(=N)N)C(=O)N[C@@H](CCCCN)C(=O)N[C@@H](CCCNC(=N)N)C(=O)N[C@@H](CCC(N)=O)C(=O)N[C@@H](CCC(N)=O)C(N)=O)[C@@H](C)CC)[C@@H](C)CC)[C@@H](C)O)[C@@H](C)O)C(C)C)C(C)C` [MELITTIN] has an HC50 of 600 nM.

— ChEMBL document CHEMBL3259819, “Antimicrobial peptides from skin secretions of Hypsiboas pulchellus (Anura: Hylidae)” (J Nat Prod, 2014)
